From patent US20220289728A1, “MODULATORS OF TREX1” (Constellation Pharmaceuticals, Inc., priority 2019, published 2022)

The chains behind the UniProt entries cited, without tags or fusion partners.
UniProt Q9NSU2, whole entry: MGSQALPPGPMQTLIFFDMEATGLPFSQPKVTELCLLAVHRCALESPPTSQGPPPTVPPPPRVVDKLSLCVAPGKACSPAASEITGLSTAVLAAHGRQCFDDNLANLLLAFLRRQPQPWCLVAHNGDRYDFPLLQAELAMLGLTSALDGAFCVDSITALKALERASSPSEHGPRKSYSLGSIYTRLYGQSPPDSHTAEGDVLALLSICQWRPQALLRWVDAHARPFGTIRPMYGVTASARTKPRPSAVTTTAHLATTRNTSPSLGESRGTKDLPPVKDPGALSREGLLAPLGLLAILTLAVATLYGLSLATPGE
UniProt Q9BQ50, whole entry: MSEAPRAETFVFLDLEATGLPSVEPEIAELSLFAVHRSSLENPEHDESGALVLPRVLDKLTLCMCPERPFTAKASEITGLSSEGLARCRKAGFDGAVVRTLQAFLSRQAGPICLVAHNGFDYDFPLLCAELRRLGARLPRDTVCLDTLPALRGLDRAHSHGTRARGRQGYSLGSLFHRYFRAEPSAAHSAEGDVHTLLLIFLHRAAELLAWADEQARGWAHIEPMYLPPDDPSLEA

Experiments:
full length human TREX1 = full length human TREX1 (Homo sapiens, UniProt Q9NSU2); assay: TREX1 Biochemical Assay (fluorescence, dsDNA substrate degradation); details: read-out: TREX1 IC50; 150 pM TREX1, 60 nM dsDNA substrate, 25 minutes at room temperature
Description: (§1) Degradation of the dsDNA liberates free fluorophore to produce a fluorescent signal. Specifically, 7.5 μL of N-terminally His-Tev tagged full length human TREX1 (expressed in E. coli and purified in house) in reaction buffer (50 mM Tris (pH 7.4), 150 mM NaCl, 2 mM DTT, 0.1 mg/mL BSA, 0.01% (v/v) Tween-20 and 100 mM MgCl2) was added to a 384-well Black ProxiPlate Plus (Perkin Elmer) which already contained compound (150 nL) at varying concentrations as a 10 point dose-response in DMSO. To this was added 7.5 μL of dsDNA substrate (Strand A: 5′ TEX615/GCT AGG CAG 3′; Strand B: 5′ CTG CCT AGC/IAbRQSp (Integrated DNA Technologies)) in reaction buffer. Final concentrations were 150 pM TREX1, 60 nM dsDNA substrate in reaction buffer with 1.0% DMSO (v/v). After 25 minutes at room temperature, reactions were quenched by the addition of 5 μL of stop buffer (same as reaction buffer plus 200 mM EDTA). […] After a 5-minute incubation at room temperature, plates were read in a laser sourced Envision (Perkin-Elmer), measuring fluorescence at 615 nm following excitation w/570 nm light. IC50 values were calculated by comparing the measured fluorescence at 615 nm ratio relative to control wells pre-quenched w/stop buffer (100% inhibition) and no inhibitor (0% inhibition) controls as using non-linear least square four parameter fits and either Genedata or GraphPad Prism (GraphPad Software, Inc.).

[1] = target: human TREX2 (residues M44-A279) (Homo sapiens, UniProt Q9BQ50); assay: TREX2 Biochemical Assay (fluorescence, dsDNA substrate degradation); details: read-out: TREX2 IC50; 2.5 nM TREX2, 60 nM dsDNA substrate, 25 minutes at room temperature
Description: as §1, with “tagged” for “tagged full length”, “TREX2 (residues M44-A279, expressed” for “TREX1 (expressed”, “(IDT))” for “(Integrated DNA Technologies))”, “2.5 nM TREX2,” for “150 pM TREX1,”

HCT116 dual cells = assay: HCT116 Cell Assay (Lucia luciferase reporter of Type I interferon induction); details: read-out: HCT116 EC50; 4 h pre-treatment, pBR322/BstNI DNA transfection, Lucia luciferase at 48 h; relative to 10 uM compound 39
From the text: HCT116 dual cells (Invivogen, San Diego, Calif., USA) are derived from the human HCT116 colorectal carcinoma cell line. Cells have been selected for the stable integration of SEAP and Luciferase reporter genes, which expression is under the control of 5 tandem response elements for NF-KB/AP1 and STAT1/STAT2, respectively. The cell line was used to monitor Type I interferon induction and subsequent signaling by measuring the activity of the Lucia luciferase secreted in the culture medium.
HCT116 cells were plated in 96-well plate(s) at 40,000 cells/well in 100 uL DMEM supplemented with 10% FBS and 25 mM Hepes (pH 7.2-7.5). After overnight settling, cells were treated with TREX1i for 4 h (maximum DMSO fraction was 0.1%) before 1.25 ug/mL pBR322/BstNI restriction digest (New England Biolabs, Ipswich, Mass., USA) was transfected with Lipofectamine LTX (ThermoFisher, Grand Island, N.Y., USA), according to product manual recommendations. Briefly, Lipofectamine LTX (0.4 uL/well) was diluted in OptiMEM (5 uL/well). pBR322/BstNI (100 ng/well) was diluted in OptiMEM (5 uL/well) before Plus reagent (0.1 uL/100 ng DNA) was added. After 5 min incubation at room temperature, the DNA mixture was mixed dropwise with the diluted Lipofectamine LTX. After an additional 10 min incubation, the transfection mix (10 uL/well) was added to the cells. […]

## CCOc1cccc(Cl)c1C(c1ccccc1)N(C)c1nc(C(=O)Nc2cnoc2)c(O)c(=O)n1C (single isomer, unassigned)
Full length human TREX1
  IC50: < 0.1 µM
[1]
  IC50: < 1 µM
HCT116 dual cells
  EC50: < 1 µM
